Measurements reported in EP3494999A1, “PSMA LIGANDS FOR IMAGING AND ENDORADIOTHERAPY” (Technische Universität München, priority 2017, dated 2019).

Protein sequences, listed by entry. Tags and fused reporters are not part of them. Residues count along the entry.
UniProt P02768, 25-609: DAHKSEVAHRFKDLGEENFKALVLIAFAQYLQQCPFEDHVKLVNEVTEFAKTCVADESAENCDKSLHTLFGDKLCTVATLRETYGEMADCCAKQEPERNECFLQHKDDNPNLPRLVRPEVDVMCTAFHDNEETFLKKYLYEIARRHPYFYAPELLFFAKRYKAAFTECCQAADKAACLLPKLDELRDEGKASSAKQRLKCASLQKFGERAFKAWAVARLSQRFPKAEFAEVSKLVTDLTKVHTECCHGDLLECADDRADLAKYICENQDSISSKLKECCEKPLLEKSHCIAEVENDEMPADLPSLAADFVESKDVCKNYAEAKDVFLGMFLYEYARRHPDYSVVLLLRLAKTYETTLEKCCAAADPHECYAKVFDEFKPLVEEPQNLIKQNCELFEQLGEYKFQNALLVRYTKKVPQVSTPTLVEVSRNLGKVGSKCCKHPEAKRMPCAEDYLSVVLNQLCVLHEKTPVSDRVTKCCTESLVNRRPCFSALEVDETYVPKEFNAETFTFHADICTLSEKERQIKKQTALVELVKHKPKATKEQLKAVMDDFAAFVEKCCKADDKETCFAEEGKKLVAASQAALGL

Experiments:
human serum albumin [1] = molecular target: T1, human serum albumin (Homo sapiens, UniProt P02768); assay: Literature HSA binding of the reference substances used to calibrate the HSA column; settings: logarithmic K of human serum albumin binding, from the literature HSA%
human serum albumin [2] = molecular target: T1, human serum albumin; settings: literature value of human serum albumin binding (Valko et al. or Yamazaki et al.); cited from earlier work

SMILES: NC(=O)N1c2ccccc2C=Cc2ccccc21 [Carbamazepine]
- Log K HSA (human serum albumin [1]): 0.46
- Lit. HSA% (human serum albumin [2]): 75.00%
